Columns and labels:
[1] = tested on: A549 cells (ABCC1+); experiment: SP analysis (DCV, flow cytometry) in A549 cells; type: cell-based, human
[2] = tested on: Caco2 cells; experiment: Caco2 permeability (bidirectional); type: in vitro ADME; conditions: apical to basolateral, pH 7.4, 10 μM
[3] = Body weight / tolerability in the K562-R xenograft study; conditions: PO QD x 30 days (imatinib 50 mg/kg, 7c 10 mg/kg), n = 7

Compound	effect on SP phenotype [1]	Caco2 permeability Papp A–B [2]	Body Weight, group mean ([3]; Day 5) [g]	Body Weight, group mean ([3]; Day 12) [g]	Body Weight, group mean ([3]; Day 19) [g]	Body Weight, group mean ([3]; Day 26) [g]	Body Weight, group mean ([3]; Day 29) [g]
CCCc1nc2ccccc2n1Cc1ccc(-c2cccc(C(N)=O)c2)cc1 [5c, 4′-((2-Propyl-1H-benzo[d]imidazole-1-yl)methyl)-[1,1′-biphenyl]-3-carboxamide]	nearly inactive						
CCCc1nc2c(C)cc(-c3nc4ccccc4n3C)cc2n1Cc1ccc(-c2ccccc2C(N)=O)cc1 [7c, 4′-((1,7′-Dimethyl-2′-propyl-1H,3′H-[2,5′-bibenzo[d]imidazole]-3′-yl)methyl)-[1,1′-biphenyl]-2-carboxamide]		24.3 10^–6 cms^–1	23.9	23.7	24.3	24.3	24.3

Source: paper PMC11726677, “Eradication of Therapy-Resistant Cancer Stem Cells by Novel Telmisartan Derivatives” (Journal of Medicinal Chemistry, 2024)
